Laboratory results: patent US7501430B2 (ArQule, Inc., priority 2006, dated 2009)

Amino acid sequences for entries named in this document (tags omitted).
UniProt P15056, whole entry V600E: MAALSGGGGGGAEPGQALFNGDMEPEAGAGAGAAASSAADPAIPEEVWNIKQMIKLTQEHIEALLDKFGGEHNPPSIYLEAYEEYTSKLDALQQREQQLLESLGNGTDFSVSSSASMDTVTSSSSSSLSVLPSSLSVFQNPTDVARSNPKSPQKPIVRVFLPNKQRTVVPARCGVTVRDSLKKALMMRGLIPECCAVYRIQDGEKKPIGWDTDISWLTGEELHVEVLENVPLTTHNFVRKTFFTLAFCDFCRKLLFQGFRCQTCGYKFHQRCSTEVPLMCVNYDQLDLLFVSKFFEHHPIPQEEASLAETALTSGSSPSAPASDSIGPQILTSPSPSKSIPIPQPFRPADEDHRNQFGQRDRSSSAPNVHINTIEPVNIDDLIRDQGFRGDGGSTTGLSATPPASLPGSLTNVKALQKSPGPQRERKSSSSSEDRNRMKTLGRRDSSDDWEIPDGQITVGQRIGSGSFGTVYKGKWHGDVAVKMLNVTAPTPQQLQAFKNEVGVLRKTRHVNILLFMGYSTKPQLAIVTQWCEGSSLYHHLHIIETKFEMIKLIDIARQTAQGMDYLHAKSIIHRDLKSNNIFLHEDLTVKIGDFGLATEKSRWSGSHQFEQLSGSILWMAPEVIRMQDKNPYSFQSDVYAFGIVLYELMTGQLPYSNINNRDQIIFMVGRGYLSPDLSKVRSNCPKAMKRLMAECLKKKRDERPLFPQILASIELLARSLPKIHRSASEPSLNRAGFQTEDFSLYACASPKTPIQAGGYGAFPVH

Molecular target: mutant B-RAF (Homo sapiens, UniProt P15056, V600E)
Experiment: RAF biochemical assay (MEK-1 phosphorylation, anti-phospho MEK1/2 detection)
Settings: read-out: Mutant B-RAF IC50

Work on O=C(O)c1ccc(S(=O)(=O)N2CCC[C@@H](Nc3nccc(-c4c(-c5cccc(O)c5)nc5sccn45)n3)C2)cc1 yielded an IC50 of 2 nM.
